The target in test [1] is sFGFR3_Del4-D3 (human) (UniProt P22607). The test can be described thus: SPR (Biacore T200), immobilised sFGFR3_Del4-D3, FGF as analyte, 2:1 (conformational change) model, ka2. On the technique in general: SPR reads the build-up and loss of mass on a sensor chip optically.
The target is the same in test [2]. Nature of the test: SPR (Biacore T200), immobilised sFGFR3_Del4-D3, FGF as analyte, 2:1 (conformational change) model, kd2.

As to “human FGF9 (from UniProt P31371 4-208) (ligand)”, the ka2 with sFGFR3_Del4-D3 (human) [1] was 0.03 M⁻¹ s⁻¹. This substance displayed a kd2 in the test with sFGFR3_Del4-D3 (human) [2] of 0.0036 s⁻¹.

The values above are taken from US20210309718A1.
